Laboratory results as given in PubChem BioAssay AID624038 (The Scripps Research Institute Molecular Screening Center, 2012).
The list shows a part of the results, in another mix than the full data. Activity calls are given as the source filed them.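 Rule for the calls: active = activation above the run cutoff, the mean activation of all test compounds plus 3 SD (cut at about 18% in these data); inactive = the rest.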

Chains of the proteins cited; added tags and fusions are not shown.
UniProt P08912, whole entry, looked up: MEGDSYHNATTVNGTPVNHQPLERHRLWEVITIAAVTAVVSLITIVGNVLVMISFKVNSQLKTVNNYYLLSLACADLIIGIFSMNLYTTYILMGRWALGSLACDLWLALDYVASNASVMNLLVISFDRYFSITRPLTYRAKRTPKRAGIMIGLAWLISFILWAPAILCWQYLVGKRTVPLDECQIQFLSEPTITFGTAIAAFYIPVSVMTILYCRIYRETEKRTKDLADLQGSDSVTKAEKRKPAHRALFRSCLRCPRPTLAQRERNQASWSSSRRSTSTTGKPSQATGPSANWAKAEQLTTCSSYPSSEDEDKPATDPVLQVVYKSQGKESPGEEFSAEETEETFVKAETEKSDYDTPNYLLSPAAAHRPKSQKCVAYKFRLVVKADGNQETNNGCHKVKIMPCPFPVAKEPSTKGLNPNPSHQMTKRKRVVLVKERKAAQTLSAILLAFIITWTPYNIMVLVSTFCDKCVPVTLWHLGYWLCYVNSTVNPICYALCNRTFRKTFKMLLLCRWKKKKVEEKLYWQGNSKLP

biological target: Muscarinic acetylcholine receptor M5 (Homo sapiens) (UniProt P08912); assay: CHRM5 PAMs potentiating acetylcholine calcium signal – CHO-K1 cells, Fluo-8 calcium fluorescence, primary screen (AID 624038); conditions: CHO-K1 hM5, Fluo-8 calcium, ACh EC20 PAM; at 3 µM; active compounds read high; 0% = ACh EC20, 100% = ACh EC100

For `Cc1cc(SC(NC=O)C(Cl)(Cl)Cl)ncn1` (configuration not stated), which activation is on record?
The activation was inactive: 12.2%.

Which activation does the source give for `O=P(Nc1ccccn1)(c1cccc2ccccc12)c1cccc2ccccc12` here?
Its activation is inactive: 2.48%.

How did the activation turn out when `O=[N+]([O-])c1ccc(Nc2ccc(Oc3ccc([N+](=O)[O-])cc3[N+](=O)[O-])cc2)c([N+](=O)[O-])c1` was run?
Its activation is inactive: -2.82%.

How did the activation turn out when `CCOC(=O)Nc1cccc([As](=O)(O)O)c1` was run?
The activation was inactive: 2.7%.

For `COP(=O)(OC)N1CC1c1ccccc1` (configuration not stated), which activation is on record?
The activation was inactive: -1.71%.

How did the activation turn out when `Cc1cc(SC(NC(=O)c2ccccc2)C(Cl)(Cl)Cl)nc(C(C)C)n1` (configuration not stated) was run?
The activation was inactive: -2.86%.

How did the activation turn out when `O=C(O)C(O)c1ccc(N(CCCl)CCCl)cc1` (configuration not stated) was run?
Its activation is inactive: 0.11%.

`CCOC(=O)Nc1ccc([As](=O)(O)O)c(O)c1` was tested. Which activation did it give?
The activation was inactive: 8.32%.

For `CC1CCNP(=O)(N(CCCl)CCCl)O1` (configuration not stated), which activation is on record?
The activation was inactive: -1.58%.

Which activation does the source give for `C/C=C1/CC(C)C(C)(O)C(=O)OCC2CCN3CCC(OC1=O)C23` (configuration not stated) here?
The activation was inactive: -20.5%.

With `CCC(C)N(CC(C)C)C(=S)SC(NC(C)=O)C(Cl)(Cl)Cl` (configuration not stated) as the molecule, how does the activation read?
Its activation is inactive: 7.02%.

Which activation does the source give for `O=C(OC1CN2CCC1CC2)c1cccc([N+](=O)[O-])c1` (configuration not stated) here?
The activation was inactive: -10.1%.

`CSc1ccc(Nc2c([N+](=O)[O-])cc([N+](=O)[O-])cc2[N+](=O)[O-])cc1` was tested. Which activation did it give?
The activation was inactive: -15.7%.

With `CCOC(=O)c1ccc(NC(=O)C(C)(CCl)SC)cc1` (configuration not stated) as the molecule, how does the activation read?
The activation was inactive: -2.88%.

How did the activation turn out when `O=C(O)C(=O)c1ccc(N(CCCl)CCCl)cc1` was run?
Its activation is inactive: -1.83%.

`O=C(COc1ccccc1)OC1CN2CCC1CC2` (configuration not stated) was tested. Which activation did it give?
The activation was inactive: -26.2%.

Which activation does the source give for `O=C(Nc1ccncc1[N+](=O)[O-])c1ccc([N+](=O)[O-])cc1[N+](=O)[O-]` here?
Its activation is inactive: -3.2%.

How did the activation turn out when `COP1(=S)c2c(C)nn(CCC#N)c2N=C(c2ccc(F)cc2)N1C` (configuration not stated) was run?
The activation was inactive: 0.35%.

With `COC(=O)C1(C)COP(=O)(N2CCCC2)OC1` (configuration not stated) as the molecule, how does the activation read?
The activation was inactive: -5.94%.

With `O=[N+]([O-])c1cc(Oc2ccc([N+](=O)[O-])cc2C(F)(F)F)cc([N+](=O)[O-])c1` as the molecule, how does the activation read?
The activation was inactive: -5.22%.

How did the activation turn out when `COc1ccc(N/C(=N/P(=O)(N2CCOCC2)N2CCOCC2)N2CCOCC2)cc1` was run?
Its activation is inactive: 5.36%.

With `O=P1(N(CCCl)CCCl)OCCCN1CCCl` (configuration not stated) as the molecule, how does the activation read?
Its activation is inactive: 3.33%.

How did the activation turn out when `O=P1(N(CCCl)CCCl)Nc2ccccc2N1` was run?
The activation was inactive: -5.2%.

`COc1ccc2nc(NP(=O)(c3ccccc3)c3ccccc3)sc2c1` was tested. Which activation did it give?
The activation was inactive: -3.16%.

`COc1cc(I)ccc1[As](=O)(O)O` was tested. Which activation did it give?
The activation was inactive: 8.34%.

How did the activation turn out when `Cc1c2c(nc3ccccc13)SC(C(Cl)Cl)C2` (configuration not stated) was run?
Its activation is inactive: -8.32%.

For `O=C(OC1CN2CCC1CC2)C12CC3CC(CC(C3)C1)C2` (configuration not stated), which activation is on record?
Its activation is inactive: -43.1%.
